According to patent US20220267754A1, “VECTOR-BASED MUTAGENESIS SYSTEM” (priority 2015, published 2022):

System: E. coli MG1655 ΔrecA::apra
Test: Evolution of novel antibiotic resistance
Assay type: cell-based

In the case of methylnitronitrosoguanidine, the “fraction of cells resistant, CTX” value (5 μg/mL cefotaxime) is reported as 3.67E−07, the “fraction of cells resistant, TET” value (10 μg/mL tetracycline) is reported as 0.00E+00 and the “fraction of cells resistant, KAN” value (30 μg/mL kanamycin) is reported as 5.33E−04. For the same substance, the “fraction of cells resistant, CRB” value (50 μg/mL carbenicillin, plated after overnight culture without selection) was 0.00E+00, the “fraction of cells resistant, STR” value (50 μg/mL streptomycin) was 2.44E−07 and the “fraction of cells resistant, FOS” value (100 μg/mL fosfomycin) was 1.22E−04. For the same substance, the “fraction of cells resistant, RIF” value (100 μg/mL rifampin) was 5.56E−06, the “fraction of cells resistant, SPC” value (100 μg/mL spectinomycin) was 3.67E−05 and the “fraction of cells resistant, MIX” value (MTX, 100 μg/mL metronidazole) was 3.22E−05.
